For eight molecules, Emax and Kb results are on record in ChEMBL document CHEMBL5505953, “Facilitating the development of molecular glues: Opportunities from serendipity and rational design” (Eur J Med Chem, 2024).

Sequences of proteins named here, by UniProt entry; tags and fusion partners are left off. A change or cut given only in a name is not applied to a line headed by its entry.
UniProt P48729: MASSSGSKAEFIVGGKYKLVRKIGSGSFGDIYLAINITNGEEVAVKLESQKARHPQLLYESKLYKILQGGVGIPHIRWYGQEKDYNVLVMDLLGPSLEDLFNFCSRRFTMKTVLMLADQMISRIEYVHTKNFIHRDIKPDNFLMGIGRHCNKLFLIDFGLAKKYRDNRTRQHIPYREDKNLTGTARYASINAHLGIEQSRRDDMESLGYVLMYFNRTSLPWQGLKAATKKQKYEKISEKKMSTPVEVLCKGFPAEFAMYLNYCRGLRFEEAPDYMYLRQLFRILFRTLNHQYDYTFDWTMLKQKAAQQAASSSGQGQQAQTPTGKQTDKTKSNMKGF
UniProt Q96SW2: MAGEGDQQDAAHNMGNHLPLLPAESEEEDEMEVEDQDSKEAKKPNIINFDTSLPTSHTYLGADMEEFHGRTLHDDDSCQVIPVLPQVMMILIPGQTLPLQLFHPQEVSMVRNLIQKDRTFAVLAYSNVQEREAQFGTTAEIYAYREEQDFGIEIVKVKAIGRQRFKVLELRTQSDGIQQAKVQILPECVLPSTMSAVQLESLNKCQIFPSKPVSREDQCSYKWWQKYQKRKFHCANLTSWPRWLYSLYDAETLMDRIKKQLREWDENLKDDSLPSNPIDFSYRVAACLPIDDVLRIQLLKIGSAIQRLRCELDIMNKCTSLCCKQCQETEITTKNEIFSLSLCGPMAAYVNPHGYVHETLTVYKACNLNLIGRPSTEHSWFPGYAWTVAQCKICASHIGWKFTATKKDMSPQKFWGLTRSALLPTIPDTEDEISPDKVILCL
UniProt Q9UKS7: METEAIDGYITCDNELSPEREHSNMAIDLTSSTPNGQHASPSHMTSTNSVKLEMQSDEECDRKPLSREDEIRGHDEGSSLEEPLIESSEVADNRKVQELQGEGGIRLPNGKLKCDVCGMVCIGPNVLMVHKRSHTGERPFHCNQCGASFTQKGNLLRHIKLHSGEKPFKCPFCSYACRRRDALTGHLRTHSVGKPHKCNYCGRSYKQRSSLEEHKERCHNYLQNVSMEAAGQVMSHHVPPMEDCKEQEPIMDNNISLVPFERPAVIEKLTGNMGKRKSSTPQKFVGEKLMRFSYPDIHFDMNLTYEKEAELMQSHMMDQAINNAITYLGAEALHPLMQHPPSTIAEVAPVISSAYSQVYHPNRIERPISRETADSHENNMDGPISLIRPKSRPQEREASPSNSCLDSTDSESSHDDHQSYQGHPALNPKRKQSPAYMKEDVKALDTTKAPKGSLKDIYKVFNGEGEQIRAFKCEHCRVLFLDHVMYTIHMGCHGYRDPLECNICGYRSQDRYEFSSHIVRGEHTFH
UniProt P03372, whole entry: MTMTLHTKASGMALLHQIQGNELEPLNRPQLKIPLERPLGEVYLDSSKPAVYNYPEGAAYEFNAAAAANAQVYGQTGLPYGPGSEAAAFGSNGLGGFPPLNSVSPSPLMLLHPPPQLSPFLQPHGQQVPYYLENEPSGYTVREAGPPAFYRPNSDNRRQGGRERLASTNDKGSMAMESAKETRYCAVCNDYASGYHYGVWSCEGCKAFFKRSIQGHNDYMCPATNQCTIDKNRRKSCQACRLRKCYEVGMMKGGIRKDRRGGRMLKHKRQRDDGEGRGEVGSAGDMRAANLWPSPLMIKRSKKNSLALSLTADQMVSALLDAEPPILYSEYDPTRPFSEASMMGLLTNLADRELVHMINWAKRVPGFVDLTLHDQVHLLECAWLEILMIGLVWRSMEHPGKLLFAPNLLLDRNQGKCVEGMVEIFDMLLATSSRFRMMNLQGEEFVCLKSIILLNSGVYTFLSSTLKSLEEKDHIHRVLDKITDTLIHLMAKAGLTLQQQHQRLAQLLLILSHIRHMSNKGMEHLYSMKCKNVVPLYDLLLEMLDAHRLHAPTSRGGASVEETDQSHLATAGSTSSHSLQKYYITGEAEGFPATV
UniProt Q06187: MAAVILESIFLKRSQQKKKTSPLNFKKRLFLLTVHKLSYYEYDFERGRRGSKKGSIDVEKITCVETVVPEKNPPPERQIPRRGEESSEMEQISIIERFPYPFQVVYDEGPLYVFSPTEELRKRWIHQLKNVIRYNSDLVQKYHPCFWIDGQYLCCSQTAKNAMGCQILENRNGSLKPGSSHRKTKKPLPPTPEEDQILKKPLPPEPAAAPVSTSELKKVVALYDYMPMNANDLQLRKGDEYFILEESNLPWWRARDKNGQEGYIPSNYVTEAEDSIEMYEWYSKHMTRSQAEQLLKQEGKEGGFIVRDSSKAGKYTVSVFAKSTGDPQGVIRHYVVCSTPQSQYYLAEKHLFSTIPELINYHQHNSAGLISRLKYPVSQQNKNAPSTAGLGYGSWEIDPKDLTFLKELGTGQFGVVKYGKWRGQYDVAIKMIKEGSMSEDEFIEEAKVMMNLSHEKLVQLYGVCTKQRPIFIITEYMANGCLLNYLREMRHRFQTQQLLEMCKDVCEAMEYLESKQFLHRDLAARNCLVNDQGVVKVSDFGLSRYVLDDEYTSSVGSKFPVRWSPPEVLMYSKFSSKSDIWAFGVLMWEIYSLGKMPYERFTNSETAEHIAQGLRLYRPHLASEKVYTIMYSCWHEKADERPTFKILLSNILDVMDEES
UniProt P15170, whole entry, looked up: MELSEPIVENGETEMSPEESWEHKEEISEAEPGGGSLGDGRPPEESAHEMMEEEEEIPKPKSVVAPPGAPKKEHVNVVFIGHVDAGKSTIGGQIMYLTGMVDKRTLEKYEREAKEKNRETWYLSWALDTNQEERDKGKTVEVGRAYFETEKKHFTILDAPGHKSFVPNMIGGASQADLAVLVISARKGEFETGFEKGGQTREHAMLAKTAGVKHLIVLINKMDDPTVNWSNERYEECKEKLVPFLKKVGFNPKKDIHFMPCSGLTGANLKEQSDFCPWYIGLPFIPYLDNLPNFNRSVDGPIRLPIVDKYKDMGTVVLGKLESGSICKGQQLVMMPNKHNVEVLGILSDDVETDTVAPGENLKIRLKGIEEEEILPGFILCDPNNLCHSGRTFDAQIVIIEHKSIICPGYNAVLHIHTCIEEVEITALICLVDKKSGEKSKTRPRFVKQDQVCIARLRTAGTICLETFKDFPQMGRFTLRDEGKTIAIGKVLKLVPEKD

The target of test [1] is Cereblon/Casein kinase I alpha (Homo sapiens, UniProt P48729+Q96SW2). In words: PROTAC activity at CRBN/CK1alpha in human MOLM-13 cells assessed as maximum degradation at 25 uM by Western blot analysis relative to control. Format: cell-based. (A western blot detects proteins with antibodies after separation by electrophoresis.)
For test [2], the target named is Protein cereblon/Zinc finger protein Helios (Homo sapiens, UniProt Q96SW2+Q9UKS7). In words: PROTAC activity at CRBN/IKZF2 (unknown origin) in HEK293T cells assessed as maximal degradation at 25 uM incubated for 24 hrs by Western blotting analysis relative to control. It counts as cell-based.
The target in the next test is Estrogen receptor (Homo sapiens, UniProt P03372). In words: Binding affinity to wild type ERalpha (unknown origin) assessed as apparent dissociation constant.
In test [3] the target is Protein cereblon/Tyrosine-protein kinase BTK (Homo sapiens, UniProt Q06187+Q96SW2). Put plainly: PROTAC activity at BTK/CRBN protein protein interaction in human Ramos cell assessed as maximum degradation of BTK incubated for 17 hrs measured by Western blot analysis relative to control. It counts as cell-based.
In test [4] the target is Protein cereblon/Eukaryotic peptide chain release factor GTP-binding subunit ERF3A (Homo sapiens) (UniProt Q96SW2+P15170). Put plainly: PROTAC activity at CRBN/GSPT1 protein protein interaction in human MOLT-4 cells assessed as maximum degradation of GSPT1 incubated for 17 hrs by Western blot analysis relative to control. Format: cell-based.

Where only a bound is given, the exact number is not on record here.

Turning to `O=C1CCC(N2Cc3c(CNC(=O)c4ccc(F)cc4)cccc3C2=O)C(=O)N1` (centres undefined), the Emax in test [1] stood at 88%.

With `O=C1CCC(N2Cc3cc(C4CCN(Cc5ccccc5)CC4)ccc3C2=O)C(=O)N1` (centres undefined), the Emax in test [2] came out at 53%. Regarding `O=C1CCC(N2Cc3cc(C4CCNCC4)ccc3C2=O)C(=O)N1` (centres undefined), the Emax in test [2] was 29%. On to `C=CC(C)(C)OC[C@H]1O[C@H](O[C@@H]2C3=C([C@H](C)COC(C)=O)C[C@H](O)[C@]3(C)/C=C3/[C@@H](COC)CC[C@H]3[C@@H](C)[C@H]2O)[C@H](O)[C@@H](OC(C)=O)[C@@H]1O`, for which the Kb at Estrogen receptor was 0.061 µM. Take `Cc1cccc(C(=O)Nc2ccc3c(c2)CN(C2CCC(=O)NC2=O)C3=O)c1` (centres undefined): the Emax in test [1] turned out to be 95%. As for `O=C1CCC(N2Cc3cc(Nc4noc5ccccc45)ccc3C2=O)C(=O)N1` (centres undefined), in test [1], the Emax is less than 10%. `CS(=O)(=O)c1ccc(C=O)cc1`: the Kb on Estrogen receptor turned out to be 3.4 µM. Take `Nc1ncnc2c1c(-c1ccc(Oc3ccccc3)cc1)nn2[C@H]1CCCN(C(=O)CCCCCCCCNc2ccc3c(c2)C(=O)N(C2CCC(=O)NC2=O)C3=O)C1` (some centres undefined): the maximum response (Emax) in test [3] is 80%; in test [4], 90%.

One may read the Emax as the greatest response seen or fitted, relative to the assay's reference.
